Target: N-terminally GST-tagged full length human wildtype Syk (Homo sapiens, UniProt P43405)
Experiment: Biochemical Syk Assay

Row | Compound | IC50 [nM]
1 | CCN1CCN(c2ccc(Nc3cc(-c4ccc5c(CCO)c[nH]c5c4)c(Cl)n4ccnc34)nc2)CC1 [2-(6-(5-chloro-8-(5-(4-ethylpiperazin-1-yl)pyridin-2-ylamino)imidazo[1,2-a]pyridin-6-yl)-1H-indol-3-yl)ethanol] | 215
2 | CCn1ccc(Nc2cc(-c3ccc4nc(N)ncc4c3)cn3ccnc23)n1 [6-{8-[(1-ethyl-1H-pyrazol-3-yl)amino]imidazo[1,2-a]pyridin-6-yl}quinazolin-2-amine] | 171
3 | CCN1CCN(c2ccc(Nc3cc(-c4ccc5c(CCO)cn(C)c5c4)c(Cl)n4ccnc34)nc2)CC1 [2-(6-(5-chloro-8-(5-(4-ethylpiperazin-1-yl)pyridin-2-ylamino)imidazo[1,2-a]pyridin-6-yl)-1-methyl-1H-indol-3-yl)ethanol] | 278
4 | CCn1ccc(Nc2cc(-c3ccc4c(c3)NC(=O)CO4)cn3ccnc23)n1 [6-{8-[(1-ethyl-1H-pyrazol-3-yl)amino]imidazo[1,2-a]pyridin-6-yl}-3,4-dihydro-2H-1,4-benzoxazin-3-one] | 548
5 | CCN1CCN(c2ccc(Nc3cc(-c4ccc5c(CCO)c[nH]c5c4)c(C)n4ccnc34)nc2)CC1 [2-(6-(8-(5-(4-ethylpiperazin-1-yl)pyridin-2-ylamino)-5-methylimidazo[1,2-a]pyridin-6-yl)-1H-indol-3-yl)ethanol] | 301
6 | O=C(O)c1c(-c2ccc3cn[nH]c3c2)cc(Nc2ccc(N3CCOCC3)cn2)c2nccn12 [6-(1H-indazol-6-yl)-8-(5-morpholinopyridin-2-ylamino)imidazo[1,2-a]pyridine-5-carboxylic acid] | 4230
7 | NC(=O)c1c(-c2ccc3cn[nH]c3c2)cc(Nc2ccc(N3CCOCC3)cn2)c2nccn12 [6-(1H-indazol-6-yl)-8-(5-morpholinopyridin-2-ylamino)imidazo[1,2-a]pyridine-5-carboxamide] | 569
8 | COc1ccc(Nc2cc(-c3ccc4cn[nH]c4c3)cn3ccnc23)cc1OC [N-(3,4-dimethoxyphenyl)-6-(1H-indazol-6-yl)imidazo[1,2-a]pyridin-8-amine] | 1050
9 | CCc1c(-c2ccc3c(c2)NC(=O)C3)cc(Nc2ccc(N3CCN(CC)CC3)cn2)c2nccn12 [6-(5-ethyl-8-(5-(4-ethylpiperazin-1-yl)pyridin-2-ylamino)imidazo[1,2-a]pyridin-6-yl)indolin-2-one] | 532
10 | Cc1cc(Nc2cc(-c3ccc4c(c3)NCCO4)cn3ccnc23)nn1C [N-[6-(3,4-dihydro-2H-1,4-benzoxazin-6-yl)imidazo[1,2-a]pyridin-8-yl]-1,5-dimethyl-1H-pyrazol-3-amine] | 154
11 | Cc1cc(Nc2cc(-c3ccc4ncn(C)c4c3)cn3ccnc23)nn1C [1,5-dimethyl-N-[6-(1-methyl-1H-1,3-benzodiazol-6-yl)imidazo[1,2-a]pyridin-8-yl]-1H-pyrazol-3-amine] | 182
12 | Cc1c(-c2cnc3[nH]ccc3c2)cc(Nc2ccc(N3CCOCC3)cn2)c2nccn12 [5-methyl-N-(5-morpholinopyridin-2-yl)-6-(1H-pyrrolo[2,3-b]pyridin-5-yl)imidazo[1,2-a]pyridin-8-amine] | 166
13 | CCc1c(-c2ccc3cn[nH]c3c2)cc(Nc2ccc(N3CCN(CC)CC3)cn2)c2nccn12 [5-ethyl-N-(5-(4-ethylpiperazin-1-yl)pyridin-2-yl)-6-(1H-indazol-6-yl)imidazo[1,2-a]pyridin-8-amine] | 252
14 | Cc1c(-c2ccc3c(c2)N(C)C(=O)C3)cc(Nc2ccc(N3CCOCC3)cn2)c2nccn12 [1-methyl-6-(5-methyl-8-(5-morpholinopyridin-2-ylamino)imidazo[1,2-a]pyridin-6-yl)indolin-2-one] | 1030
15 | Cc1cc(Nc2cc(-c3ccc4c(c3)ncn4C)cn3ccnc23)nn1C [1,5-dimethyl-N-[6-(1-methyl-1H-1,3-benzodiazol-5-yl)imidazo[1,2-a]pyridin-8-yl]-1H-pyrazol-3-amine] | 188
16 | CCc1c(-c2ccc3cc[nH]c3c2)cc(Nc2ccc(N3CCN(CC)CC3)cn2)c2nccn12 [5-ethyl-N-(5-(4-ethylpiperazin-1-yl)pyridin-2-yl)-6-(1H-indol-6-yl)imidazo[1,2-a]pyridin-8-amine] | 272
17 | CC(C)(CO)c1ccc(Nc2cc(-c3ccc4c(CCO)c[nH]c4c3)cn3ccnc23)cc1 [2-[4-({6-[3-(2-hydroxyethyl)-1H-indol-6-yl]imidazo[1,2-a]pyridin-8-yl}amino)phenyl]-2-methylpropan-1-ol] | 138
18 | CCN1CCN(c2ccc(Nc3cc(-c4ccc5cc[nH]c5c4)c(Cl)n4ccnc34)nc2)CC1 [5-chloro-N-(5-(4-ethylpiperazin-1-yl)pyridin-2-yl)-6-(1H-indol-6-yl)imidazo[1,2-a]pyridin-8-amine] | 271
19 | CCN1CCN(c2ccc(Nc3cc(-c4ccc5c(C(=O)NC)c[nH]c5c4)c(C)n4ccnc34)nc2)CC1 [6-(8-(5-(4-ethylpiperazin-1-yl)pyridin-2-ylamino)-5-methylimidazo[1,2-a]pyridin-6-yl)-N-methyl-1H-indole-3-carboxamide] | 883
20 | CCN1CCN(c2ccc(Nc3cc(-c4ccc5cc(C)[nH]c5c4)c(C)n4ccnc34)nc2)CC1 [N-(5-(4-ethylpiperazin-1-yl)pyridin-2-yl)-5-methyl-6-(2-methyl-1H-indol-6-yl)imidazo[1,2-a]pyridin-8-amine] | 423
21 | Cc1c(-c2ccc3c(CCO)cn(C)c3c2)cc(Nc2ccc(N3CCOCC3)cn2)c2nccn12 [2-(1-methyl-6-(5-methyl-8-(5-morpholinopyridin-2-ylamino)imidazo[1,2-a]pyridin-6-yl)-1H-indol-3-yl)ethanol] | 320
22 | Cc1c(-c2ccc3cn[nH]c3c2)cc(Nc2ccc(N3CCNCC3)cn2)c2nccn12 [6-(1H-indazol-6-yl)-5-methyl-N-(5-(piperazin-1-yl)pyridin-2-yl)imidazo[1,2-a]pyridin-8-amine] | 128
23 | c1cc(Nc2cc(-c3ccc4cn[nH]c4c3)cn3ccnc23)ncn1 [N-[6-(1H-indazol-6-yl)imidazo[1,2-a]pyridin-8-yl]pyrimidin-4-amine] | 297
24 | CC(C)N1CCN(c2ccc(Nc3cc(-c4ccc5c(CCO)cn(C)c5c4)c(Cl)n4ccnc34)nc2)CC1 [2-(6-(5-ehloro-8-(5-(4-isopropylpiperazin-1-yl)pyridin-2-ylamino)imidazo[1,2-a]pyridin-6-yl)-1-methyl-1H-indol-3-yl)ethanol] | 218
25 | c1cn2cc(-c3ccc4cn[nH]c4c3)cc(Nc3csc(N4CCOCC4)n3)c2n1 [N-[6-(1H-indazol-6-yl)imidazo[1,2-a]pyridin-8-yl]-2-(morpholin-4-yl)-1,3-thiazol-4-amine] | 291
